Data reported in patent publication US5418162A, “Serotonin transporter CDNA” (Duke University, priority 1992, dated 1995).

Protein sequences, listed by entry. Tags and fused reporters are not part of them.
UniProt P31652, whole entry: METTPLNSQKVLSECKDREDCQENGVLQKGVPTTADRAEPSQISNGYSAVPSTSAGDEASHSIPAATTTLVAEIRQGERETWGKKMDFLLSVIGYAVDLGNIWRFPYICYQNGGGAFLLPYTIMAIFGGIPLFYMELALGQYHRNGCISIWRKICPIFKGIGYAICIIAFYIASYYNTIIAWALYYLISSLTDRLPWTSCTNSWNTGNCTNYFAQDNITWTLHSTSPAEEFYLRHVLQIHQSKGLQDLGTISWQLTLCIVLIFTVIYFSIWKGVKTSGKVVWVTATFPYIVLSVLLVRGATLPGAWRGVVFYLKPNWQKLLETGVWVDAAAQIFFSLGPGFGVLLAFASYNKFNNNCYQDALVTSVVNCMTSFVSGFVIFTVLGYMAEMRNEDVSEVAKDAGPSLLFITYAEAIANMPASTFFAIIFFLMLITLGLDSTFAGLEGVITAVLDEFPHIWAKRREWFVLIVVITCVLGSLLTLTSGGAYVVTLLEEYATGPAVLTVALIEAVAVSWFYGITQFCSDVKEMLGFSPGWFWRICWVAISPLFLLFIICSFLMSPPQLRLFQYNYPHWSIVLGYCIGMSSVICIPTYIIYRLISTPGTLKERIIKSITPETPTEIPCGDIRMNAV

Molecular target: rat 5HT transporter (rSERT) (Rattus norvegicus, UniProt P31652)
Experiment: [3H]5HT transport assay in HeLa cells transfected with BS4E-10 cDNA (rSERT)
Assay type: cell-based

In the case of `CNCCC=C1c2ccccc2CCc2ccccc21` [nortriptyline], the Ki is reported as 73.5 nM.
`CNCC(O)c1ccc(O)c(O)c1` (centres unmarked) [adrenaline] gave a Ki of over 10000 nM.
With `Fc1ccc([C@@H]2CCNC[C@H]2COc2ccc3c(c2)OCO3)cc1` [paroxetine] the Ki was 0.39 nM and the “potency for 5HT transport inhibition compared with inhibition of the cloned NA carrier” value (rSERT in transfected cells vs cloned NA transporter) was “nearly three orders of magnitude more potent”.
`Fc1ccc(C(OCCN2CCN(CCCc3ccccc3)CC2)c2ccc(F)cc2)cc1` [GBR12909] was tested, and the Ki was 3900 nM.
